This is a sample that favours compounds with a hit; in the whole collection about 2.3% have one here.
NRP1-CendR mod: modulators of CendR peptide binding to NRP-1, primary screen, biochemical, fluorescence polarization, uHTS | actives 0.85% (n = 360,000) | Neuropilin-1 (Homo sapiens), O14786 | AID 602438, 2012 | FAM-RPARPAR peptide binding to NRP-1 | inhibition, % at 25 µM;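 active = inhibition or corrected inhibition above about 18%, plus a signal ratio from 0.5 to 1.5, limit read from the data, passing the limit was not always enough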
Yeast UUG start: alters start codon recognition fidelity in yeast. S. cerevisiae UUG-firefly luciferase reporter, luminescence/redox ratio. 350,000 tested, 0.13% active. activity score, % at 18.7 µM. AID 602363;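 active means replicate mean at a twofold rise or more, about +100% in these data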;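 further: firefly luciferase made from a UUG start codon reports start codon fidelity; reporter light over untreated wells divided by growth signal over untreated wells; some hits fall short of that in this replicate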
ARFGAP1 inhibitor: inhibitors of rat ARFGAP1 GAP activity, primary screen, biochemical, fluorescence polarization, GDP tracer; inhibition, % at 16.5 µM; ADP-ribosylation factor GTPase-activating protein 1 (Rattus norvegicus), Q62848; actives 0.26% (n = 360,000); Arfgap1-stimulated ARF1 GTP hydrolysis, GDP FP detection; AID 651572, 2012;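 active = inhibition above a per-plate limit, mean inhibition of low control wells plus 3 SD, cut at about 25% in these data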
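Material: truncated rat Arfgap1 GAP domain; Incubation: compound-enzyme preincubation 20 min, reaction 120 min, detection 60 min, 25 °C; Read-out: percent inhibition of Arfgap1-stimulated GTP hydrolysis; Technique: FP, GDP Alexa 633 tracer displaced from anti-GDP antibody, 620/688 nm; Controls: No-Arfgap1 wells (100%) versus DMSO full-reaction wells (0%); Replication: single well per compound.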
MC4R antag cAMP: MC4R antagonists of cAMP signaling, primary screen, cell-based, TR-FRET, antagonist arm of biased-ligand search. MC4R-expressing cells, MTII-stimulated cAMP, LANCE TR-FRET. inhibition, % at 6.5 µM. actives 0.48% (n = 360,000);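 active = inhibition above its plate's cutoff, the mean of tested wells on that plate plus 3 SD, cut at about 29% in these data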
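System: U2OS cells stably expressing human melanocortin 4 receptor (MC4R). Reagent: Melanotan II challenge after compound preincubation. Doses: 6.5 µM. Times: 30-min compound, 1-h challenge, 1-h detection, room temperature. Measured by: TR-FRET with Eu-cAMP and labeled anti-cAMP, 671 nm. Replicates: singlicate.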
ASAP1 inh: inhibitors of human ASAP1 ArfGAP activity, primary screen, biochemical, fluorescence polarization; ASAP1-stimulated ARF1 GTP hydrolysis, GDP FP detection; inhibition, % at 16.5 µM; actives 0.19% (n = 360,000); in the data active = inhibition above about 25%
MC4R barr agon: MC4R agonists recruiting beta-arrestin, primary screen, cell-based, luminescence, agonist arm of biased-ligand search; AID 540308, 2011; U2OS MC4R beta-arrestin complementation; percent of melanotan II response, DMSO zero; Melanocortin receptor 4 (Homo sapiens), P32245; activation, % at 8.9 µM; actives 0.98% (n = 360,000);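 active = activation above a per-plate cutoff, the mean activation of sample wells on that plate plus 3 SD, cut at about 8% in these data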
cAMP nonselect: nonselective cAMP signaling inhibitors, parental cells, counter-screen for MC4R biased antagonist project, cell-based, TR-FRET, U2OS, forskolin, triplicate; shares compounds with MC4R antag cAMP; LANCE TR-FRET; inhibition, % at 6.5 µM; actives 26% (n = 1,600); AID 602193, 2012;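 active = mean inhibition over triplicates above the low-control well mean plus 3 SD, set per campaign, cut at about 13% in these data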;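 also: signal is single emission at 671 nm which falls as cellular cAMP rises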
MC4R antag conf: MC4R cAMP antagonists, retest, confirmation, cell-based, TR-FRET; inhibition, % at 6.5 µM; shares compounds with MC4R antag cAMP; AID 602195, 2012; actives 27% (n = 1,600); MC4R-expressing cells, MTII-stimulated cAMP; in the data active = inhibition above about 29%
A number is an active result; - = inactive; . = no result given.

Chains of the proteins cited; added tags and fusions are not shown. Residues count along the entry.
Neuropilin-1 (Homo sapiens), O14786, UniProt O14786, whole entry, looked up: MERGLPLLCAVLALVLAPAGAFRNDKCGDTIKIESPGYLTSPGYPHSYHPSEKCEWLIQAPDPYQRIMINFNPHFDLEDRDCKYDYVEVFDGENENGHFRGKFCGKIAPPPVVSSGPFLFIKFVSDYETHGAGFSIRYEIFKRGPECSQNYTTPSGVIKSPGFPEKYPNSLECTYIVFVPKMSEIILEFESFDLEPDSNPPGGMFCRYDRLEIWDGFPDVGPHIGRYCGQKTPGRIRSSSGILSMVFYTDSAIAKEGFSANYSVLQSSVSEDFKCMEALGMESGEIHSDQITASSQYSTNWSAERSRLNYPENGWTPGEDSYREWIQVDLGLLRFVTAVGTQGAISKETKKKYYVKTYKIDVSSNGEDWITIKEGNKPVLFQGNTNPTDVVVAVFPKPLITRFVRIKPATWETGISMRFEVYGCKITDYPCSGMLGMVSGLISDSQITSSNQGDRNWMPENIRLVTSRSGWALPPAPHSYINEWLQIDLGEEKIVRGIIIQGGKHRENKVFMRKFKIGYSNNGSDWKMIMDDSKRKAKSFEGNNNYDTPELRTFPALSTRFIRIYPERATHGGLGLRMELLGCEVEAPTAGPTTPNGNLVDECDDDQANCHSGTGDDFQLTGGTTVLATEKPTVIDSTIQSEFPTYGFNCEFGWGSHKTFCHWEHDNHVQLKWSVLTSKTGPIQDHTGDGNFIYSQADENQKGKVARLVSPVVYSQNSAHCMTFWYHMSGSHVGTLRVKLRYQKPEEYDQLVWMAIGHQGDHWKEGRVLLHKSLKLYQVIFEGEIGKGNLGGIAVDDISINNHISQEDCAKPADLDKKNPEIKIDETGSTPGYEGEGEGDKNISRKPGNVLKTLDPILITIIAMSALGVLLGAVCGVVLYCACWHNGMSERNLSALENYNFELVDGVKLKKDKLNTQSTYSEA
ADP-ribosylation factor GTPase-activating protein 1 (Rattus norvegicus), Q62848, UniProt Q62848, whole entry, looked up: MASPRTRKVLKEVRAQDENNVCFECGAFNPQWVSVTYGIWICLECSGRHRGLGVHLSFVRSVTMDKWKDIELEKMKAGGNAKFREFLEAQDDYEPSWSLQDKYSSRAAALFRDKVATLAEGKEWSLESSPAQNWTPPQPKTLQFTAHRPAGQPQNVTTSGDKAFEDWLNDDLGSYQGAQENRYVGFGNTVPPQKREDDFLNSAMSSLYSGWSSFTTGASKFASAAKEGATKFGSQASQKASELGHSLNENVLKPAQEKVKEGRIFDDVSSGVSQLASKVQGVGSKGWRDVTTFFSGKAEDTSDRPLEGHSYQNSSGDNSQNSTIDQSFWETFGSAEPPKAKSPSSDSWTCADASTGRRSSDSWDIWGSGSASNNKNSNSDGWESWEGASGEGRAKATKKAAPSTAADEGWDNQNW
ADP-ribosylation factor GTPase-activating protein 1 (Rattus norvegicus), Q62848, UniProt Q62848, 1-136 limits assumed: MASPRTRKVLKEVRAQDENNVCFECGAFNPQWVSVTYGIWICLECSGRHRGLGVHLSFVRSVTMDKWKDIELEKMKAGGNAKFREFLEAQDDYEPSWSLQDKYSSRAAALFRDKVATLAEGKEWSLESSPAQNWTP
Melanocortin receptor 4 (Homo sapiens), P32245, UniProt P32245, whole entry, looked up: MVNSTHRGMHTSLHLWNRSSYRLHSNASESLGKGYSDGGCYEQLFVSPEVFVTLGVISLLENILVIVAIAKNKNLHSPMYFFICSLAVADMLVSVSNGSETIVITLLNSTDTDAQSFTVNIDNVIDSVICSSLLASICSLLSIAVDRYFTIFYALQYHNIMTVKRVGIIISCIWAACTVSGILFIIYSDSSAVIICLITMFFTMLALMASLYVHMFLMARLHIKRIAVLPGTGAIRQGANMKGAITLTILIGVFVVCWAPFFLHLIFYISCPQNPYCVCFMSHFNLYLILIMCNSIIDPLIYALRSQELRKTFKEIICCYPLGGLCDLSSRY

SMILES	NRP1-CendR mod	Yeast UUG start	ARFGAP1 inhibitor	MC4R antag cAMP	ASAP1 inh	MC4R barr agon	cAMP nonselect	MC4R antag conf
O=C(Oc1ccc(C(=S)N2CCOCC2)cc1)c1ccc([N+](=O)[O-])cc1	-	-	-	34	-	-	-	-
Cc1cccc(OCC(=O)Nc2ccc3c(c2)nc(CN2CCCCC2)n3C)c1	-	.	-	32	-	-	-	-
OCCN1CCN(c2cc(C(F)(F)F)nc3c(F)cccc23)CC1	-	.	-	30	-	-	-	-
Cc1ccc(S(=O)(=O)C=CS(=O)(=O)c2ccc(C)cc2)cc1	-	-	-	42	-	-	-	-
Cc1ccc(S(=O)(=O)c2ccc(C)cc2)cc1	-	-	-	-	-	-	.	.
Cc1nn(CC(=O)NNC(=O)c2ccccc2F)c([N+](=O)[O-])c1Br	-	-	-	37	-	-	-	-
C[C@H]1CN([C@@H](C)CO)C(=O)c2cc(NC(=O)c3ccncc3)ccc2O[C@H]1CN(C)S(=O)(=O)c1ccc(Cl)cc1	.	-	.	.	.	.	.	.
CCOc1cc(N2CCOCC2)c(OCC)cc1NC(=O)COC(=O)COc1ccc(C#N)cc1	-	-	-	31	-	-	-	-
C[C@@H]1CN([C@H](C)CO)C(=O)c2cc(NS(=O)(=O)c3ccc(F)cc3)ccc2O[C@@H](C)CCCCO[C@@H]1CN(C)S(=O)(=O)c1cn(C)cn1	.	-	.	.	.	.	.	.
Cc1ccc2nc(-c3ccc(NC(=S)NC(=O)C(C)C)cc3)sc2c1	-	-	-	47	-	-	-	-
Cc1ccccc1N1C(=O)c2cccc([N+](=O)[O-])c2C1=O	-	.	-	32	-	-	14	-
C[C@@H]1CCCCO[C@@H](CN(C)S(=O)(=O)c2cccs2)[C@H](C)CN([C@H](C)CO)C(=O)c2cc(NS(=O)(=O)c3cn(C)cn3)ccc2O1	.	-	.	.	.	.	.	.
C/C=C/c1cnc2c(c1)C(=O)N([C@@H](C)CO)C[C@H](C)[C@@H](CN(C)C(=O)NC1CCCC1)O2	.	-	.	.	.	.	.	.
O=C(Nc1ccc(F)cc1)C1CCCN(S(=O)(=O)c2cccc3nonc23)C1 (stereo unspecified)	-	-	-	32	-	-	-	-
CC(=O)N(Cc1c(C)nn(-c2ccccc2)c1Cl)c1ccc(Cl)cc1	-	-	-	-	-	-	.	.
Cc1nn(-c2ccccc2)c(Cl)c1CN(C(=O)CCl)c1ccc(Cl)cc1	-	-	-	40	-	11	-	47
CC(C)NC(=O)C1CCN(C(=O)c2cc3sccc3n2Cc2ccc(F)cc2)CC1	-	-	.	32	.	-	-	-
COc1ccc2c(c1)oc(=O)c1ccccc12	-	-	-	-	-	-	.	.
O=c1oc2cc(O)c(Cl)cc2c2ccccc12	-	-	-	56	-	-	41	64
CC(=O)Nc1ccc2c(c1)C(=O)N(C)[C@@H]1CC[C@H](CC(=O)NC3CCCCC3)O[C@H]1CO2	.	-	.	.	.	.	.	.
CN(C)CCCNC(=O)C[C@@H]1CC[C@@H](NS(=O)(=O)c2ccc(F)cc2)[C@@H](CO)O1	.	-	.	.	.	.	.	.
CCC(=O)N(C)C[C@H]1Oc2cc(C#CC3CCCC3)ccc2S(=O)(=O)N([C@H](C)CO)C[C@H]1C	.	-	.	.	.	.	.	.
O=c1c2ccccc2oc2ccccc12	-	-	-	-	-	-	.	.

Bioassay records (PubChem BioAssay)
